Assay results from patent US5298499A, “S-2-(substituted ethylamino)ethyl phosphorothioates” (Research Triangle Institute, priority 1991, dated 1994).

Key:
mice [1] = conditions: intraperitoneal
mice [2] = assay: Radiation-protective evaluation in mice, 30-day survival after lethal irradiation; conditions: for 30-Day Survival: 30 min before 9.5 GY

SMILES: CC(C)(C)NC(=O)CCNCCSP(=O)(O)O
- Approximate LD50 (mice [1]): > 300 mg/kg
- 30-Day Survival (mice [2]; 75 mg/kg i.p.): 40%
- 30-Day Survival (mice [2]; 150 mg/kg i.p.): 60%
- 30-Day Survival (mice [2]; 300 mg/kg i.p.): 80%
- protection at the highest dose tested (mice [2]; highest dose tested): 80%
